The values that follow come from PubChem BioAssay (NCI).

The test system of this test is MDA-MB-468 breast. Nature of the test: growth of human tumour cells (NCI), 48 h.

Each structure is given as a SMILES string.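 How tested: cells in 96-well plates exposed to compound for 48 hours at five concentrations. GI50: concentration for 50% inhibition of growth. TGI: concentration producing complete growth inhibition.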

Consider `NC(Cc1ccccc1N(CCCl)CCCl)C(=O)O` (configuration not stated), for which the GI50 was 2.68 µM and the TGI was found to be 8.58 µM.
